Consider 2 compounds from US8470800B2, “Method of reducing intraocular pressure in humans” (Inotek Pharmaceuticals Corporation, priority 2009, dated 2013).

Sequences of proteins named here, by UniProt entry; tags and fusion partners are left off.
UniProt P0DMS8, whole entry: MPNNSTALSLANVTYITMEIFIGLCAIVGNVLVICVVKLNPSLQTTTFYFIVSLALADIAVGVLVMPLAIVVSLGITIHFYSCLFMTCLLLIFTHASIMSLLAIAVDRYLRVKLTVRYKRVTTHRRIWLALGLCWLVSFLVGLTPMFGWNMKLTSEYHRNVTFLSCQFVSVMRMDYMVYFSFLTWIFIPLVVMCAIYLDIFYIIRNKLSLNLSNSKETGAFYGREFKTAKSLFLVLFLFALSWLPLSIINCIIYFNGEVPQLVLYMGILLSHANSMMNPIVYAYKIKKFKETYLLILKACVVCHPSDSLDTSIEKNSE

Experiment [1] addresses A2A adenosine receptor (Homo sapiens (Human), UniProt P29274). In words: Adenosine receptor binding selectivity A1 > A2A. Conditions: ratio of Ki values. The method, then: (§1) As used herein, the term “selective adenosine A1 agonist” means an A1 agonist that has a high affinity to the A1 receptor while simultaneously having a low affinity for the A2 and A3 adenosine receptors.
(§2) Membranes for radioligand binding experiments are prepared from fresh or frozen cells as described in Klotz et al., Naunyn-Schmiedeberg's Arch. […] The cell suspension is then homogenized in ice-cold hypotonic buffer (5 mM Tris/HCl, 2 mM EDTA, pH 7.4) and the homogenate is spun for 10 minutes (4° C.) at 1,000 g.
(§3) Nonspecific binding is determined in the presence of 100 μM R-PM and 1 mM theophylline, respectively. For details see Klotz et al., Naunyn-Schmiedeberg's Arch.

Experiment [2] has as its target A3 adenosine receptor (Homo sapiens (Human), UniProt P0DMS8). In words: Adenosine receptor binding selectivity A1 > A3. Conditions: ratio of Ki values. The method, then: as §1, §2, §3
Experiment [3] in a line: Clinical study: single topical ocular dose, intraocular pressure in adults with OHT or POAG. In kind it is in vivo, human. From the text: The clinical study described herein is a multi-center, randomized, double-blind, placebo-controlled, dose-escalation study of a single topical ocular application of the study drug (i.e., Compound A or placebo) to the one study eye of adults with OHT or POAG. The “study eye” was defined as the eye with the higher mean IOP, recorded between 7:00 and 8:00 AM on the day prior to dosing (Day 0).
The adult subjects were sequentially assigned to 1 of 7 treatment groups. Each treatment group included twelve subjects: 8 subjects randomized to receive 2.5, 7.5, 20, 60, 180, 350 or 700 micrograms of Compound A in the study eye and 4 randomized to receive matched placebo (see Table 1) on Day 1.
Masked-intraocular pressures were determined in duplicate with a Goldmann tonometer following traditional corneal anesthesia. Following determination of the bilateral baseline (predose) IOP measurements on the morning of Day 1, the assigned study drug (Compound A or matched placebo) was instilled as a single 50 μL drop to the one study eye only. Subsequent bilateral external eye examinations and masked-IOP determinations were performed at 9:00 AM, 10:00 AM, 12:00 noon, and 2:00 PM (each ±5 minutes), corresponding to 1, 2, 4, and 6 hours post study drug application. In addition in the 700 mcg cohort an IOP determination was performed at 6:00 PM (18:00), corresponding to 10 hours post study drug application. […]

As to `O=[N+]([O-])OC[C@H]1O[C@@H](n2cnc3c(NC4CCCCC4)nc(Cl)nc32)[C@H](O)[C@@H]1O` [Compound H, ((2R,3S,4R,5R)-5-(2-chloro-6-(cyclohexylamino)-9H-purin-9-yl)-3,4-dihydroxytetrahydrofuran-2-yl)methyl nitrate], the “A1 > A2A SELECTIVITY [KiA2(nm)/KiA1(nm)]” value in experiment [1] is 192. In addition, the “A1 > A3 SELECTIVITY [KiA3(nm)/KiA1(nm)]” value in experiment [2] was 167.
With `O=[N+]([O-])OC[C@H]1O[C@@H](n2cnc3c(NC4CCCC4)ncnc32)[C@H](O)[C@@H]1O` [Compound A, ((2R,3S,4R,5R)-5-(6-(cyclopentylamino)-9H-purin-9-yl)-3,4-dihydroxytetrahydrofuran-2-yl)methyl nitrate], in experiment [1], the “A1 > A2A SELECTIVITY [KiA2(nm)/KiA1(nm)]” value is 4837. The “decrease in mean and median IOPs from predose baseline relative to the placebo response” value in experiment [3] (350 mcg cohort) and in experiment [3] (700 mcg cohort) was “statistically significant decrease” throughout. Besides, the “A1 > A3 SELECTIVITY [KiA3(nm)/KiA1(nm)]” value in experiment [2] was determined as 725.
